Molecular target: PARP10 (Homo sapiens, UniProt Q53GL7)
Experiment: Activity assay measuring NAD+ consumption, PARP10 (Tables 1-3)
Type: biochemical
Conditions: Tables 1-3 assay

The chains behind the UniProt entries cited, without tags or fusion partners.
UniProt Q53GL7, whole entry: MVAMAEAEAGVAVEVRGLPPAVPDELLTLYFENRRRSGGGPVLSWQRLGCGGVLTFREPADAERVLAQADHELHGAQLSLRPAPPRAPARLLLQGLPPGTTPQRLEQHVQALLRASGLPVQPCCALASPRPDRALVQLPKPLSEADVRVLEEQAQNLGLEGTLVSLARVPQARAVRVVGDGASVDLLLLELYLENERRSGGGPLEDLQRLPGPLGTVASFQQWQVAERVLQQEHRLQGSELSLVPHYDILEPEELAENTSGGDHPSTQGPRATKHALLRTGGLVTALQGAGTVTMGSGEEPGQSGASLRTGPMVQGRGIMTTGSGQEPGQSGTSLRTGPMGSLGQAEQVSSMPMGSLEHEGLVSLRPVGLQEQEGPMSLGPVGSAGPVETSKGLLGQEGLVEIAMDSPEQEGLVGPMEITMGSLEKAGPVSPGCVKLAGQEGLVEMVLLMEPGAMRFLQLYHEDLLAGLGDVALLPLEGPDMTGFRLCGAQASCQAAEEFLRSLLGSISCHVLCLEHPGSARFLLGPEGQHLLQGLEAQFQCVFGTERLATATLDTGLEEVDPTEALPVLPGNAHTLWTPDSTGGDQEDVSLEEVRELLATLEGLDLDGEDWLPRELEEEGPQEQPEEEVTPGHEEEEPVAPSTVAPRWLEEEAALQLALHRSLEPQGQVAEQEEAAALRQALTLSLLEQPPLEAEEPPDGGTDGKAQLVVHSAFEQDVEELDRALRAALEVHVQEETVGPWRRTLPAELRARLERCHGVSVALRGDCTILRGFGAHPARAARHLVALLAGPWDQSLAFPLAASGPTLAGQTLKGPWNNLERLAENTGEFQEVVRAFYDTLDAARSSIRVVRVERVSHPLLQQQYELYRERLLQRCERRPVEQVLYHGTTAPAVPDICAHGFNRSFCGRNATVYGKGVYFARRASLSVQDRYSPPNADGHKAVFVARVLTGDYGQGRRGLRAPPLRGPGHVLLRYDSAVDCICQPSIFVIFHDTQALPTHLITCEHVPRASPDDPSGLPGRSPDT

Cc1ccc2c(n1)sc1nnc(N)n12
PARP10 pIC50 ± SEM: 7.26 ± 0.06 | IC50 (read-out: PARP10 IC50): 60 nM

Source: patent publication US20250177359A1, “COMPOUNDS FOR USE IN THE TREATMENT OF CANCER AND INFLAMMATORY CONDITIONS” (priority 2022, published 2025)
